{"sequences": {"note": "Chains of the proteins cited; added tags and fusions are not shown.", "UniProt P23975, whole entry": "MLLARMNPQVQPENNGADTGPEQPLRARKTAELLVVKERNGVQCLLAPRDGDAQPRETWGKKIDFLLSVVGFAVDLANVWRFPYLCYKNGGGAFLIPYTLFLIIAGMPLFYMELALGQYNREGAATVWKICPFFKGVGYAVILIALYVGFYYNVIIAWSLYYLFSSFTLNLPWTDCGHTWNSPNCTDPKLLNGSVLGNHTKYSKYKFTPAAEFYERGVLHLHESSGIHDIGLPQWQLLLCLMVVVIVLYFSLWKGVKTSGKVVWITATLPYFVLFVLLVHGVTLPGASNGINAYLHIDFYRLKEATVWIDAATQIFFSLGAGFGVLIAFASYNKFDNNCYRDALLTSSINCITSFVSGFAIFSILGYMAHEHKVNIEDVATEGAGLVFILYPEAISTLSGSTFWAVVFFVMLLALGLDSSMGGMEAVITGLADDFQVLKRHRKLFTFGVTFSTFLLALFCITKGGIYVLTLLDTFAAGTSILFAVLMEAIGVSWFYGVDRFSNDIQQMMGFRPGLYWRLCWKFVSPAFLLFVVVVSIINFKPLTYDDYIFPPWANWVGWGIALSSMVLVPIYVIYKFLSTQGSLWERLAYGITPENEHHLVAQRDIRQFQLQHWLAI", "UniProt P31645, whole entry": "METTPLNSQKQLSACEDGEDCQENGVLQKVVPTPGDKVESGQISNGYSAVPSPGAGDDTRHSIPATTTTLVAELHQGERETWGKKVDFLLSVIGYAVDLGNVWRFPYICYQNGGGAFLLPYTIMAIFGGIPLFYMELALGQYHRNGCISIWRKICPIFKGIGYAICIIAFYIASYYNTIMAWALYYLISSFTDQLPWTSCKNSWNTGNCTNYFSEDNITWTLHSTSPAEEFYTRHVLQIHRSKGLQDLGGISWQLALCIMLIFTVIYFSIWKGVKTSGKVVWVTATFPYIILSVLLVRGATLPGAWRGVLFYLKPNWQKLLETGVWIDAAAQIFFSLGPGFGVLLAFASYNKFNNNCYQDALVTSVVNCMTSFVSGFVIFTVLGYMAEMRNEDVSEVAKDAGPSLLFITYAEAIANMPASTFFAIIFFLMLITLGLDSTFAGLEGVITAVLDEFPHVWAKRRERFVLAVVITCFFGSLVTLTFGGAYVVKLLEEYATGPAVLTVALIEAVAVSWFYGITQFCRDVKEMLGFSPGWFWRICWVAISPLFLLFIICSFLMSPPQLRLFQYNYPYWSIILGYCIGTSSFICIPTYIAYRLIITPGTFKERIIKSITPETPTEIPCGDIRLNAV"}, "source": "patent US20070053968A1", "about": "(Wyeth, priority 2005, published 2007)", "origin": "cited, not measured here", "key": {"[1]": {"molecular_target": "neuronal norepinephrine re-uptake (Homo sapiens, UniProt P23975)"}, "[2]": {"molecular_target": "neuronal serotonin re-uptake (Homo sapiens, UniProt P31645)"}}}
{"smiles": "CN(C)CC(c1ccc(O)cc1)C1(O)CCCCC1", "note": "(stereo not shown) [ODV]", "values": [{"measurement": "inhibition of neuronal norepinephrine re-uptake", "setting": "[1]", "result": "potent inhibitors"}, {"measurement": "potency of norepinephrine re-uptake inhibition compared with venlafaxine", "setting": "[1]; in vitro studies, versus venlafaxine", "result": "more potent inhibitor"}, {"measurement": "inhibition of neuronal serotonin re-uptake", "setting": "[2]", "result": "potent inhibitors"}, {"measurement": "potency of serotonin re-uptake inhibition compared with venlafaxine", "setting": "[2]", "result": "more potent inhibitor"}]}
